According to patent US20160367502A1, “FILM COATED PELLETS” (RATIOPHARM GMBH, priority 2012, published 2016):

Experiment: Solubility in water at 25° C.
Assay type: physicochemical
Protocol: If it is not known, it can be determined by conventional methods. […] The amount or concentration of the active pharmaceutical ingredient in the solution is determined by analytical techniques known in the art.

For sitagliptin hydrogen sulfate, the “Solubility of sitagliptin salts in water at 25° C.” value was over 300 mg/mL.
